Apparent affinities of Ab-91 variants for a coronavirus HR2 peptide

Reference: Engelhart et al. 2022, doi:10.1038/s41597-022-01779-4. File: FLAb, binding data.

Target: peptide PDVDLGDISGINAS, taken from heptad repeat 2 (HR2) of SARS-CoV-2 spike.

Each scFv is VL, three GGGGS repeats, VH, as in the parent Ab-91, and differs from it in the CDRs of the heavy chain only.
VL: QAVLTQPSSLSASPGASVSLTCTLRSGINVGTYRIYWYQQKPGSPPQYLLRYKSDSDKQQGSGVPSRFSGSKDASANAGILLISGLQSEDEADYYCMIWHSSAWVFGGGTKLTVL
VH: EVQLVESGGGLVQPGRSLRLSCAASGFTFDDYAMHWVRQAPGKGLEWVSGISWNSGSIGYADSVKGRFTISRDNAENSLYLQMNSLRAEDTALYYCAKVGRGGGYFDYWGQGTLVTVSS

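The library (AAYL51) carries one to three amino acid substitutions per variant, with no insertions or deletions. AlphaSeq pools MATa yeast showing the antibodies with MATalpha yeast showing the peptide. Binding brings cells together so that they mate, and sequencing counts the barcode pairs among the diploids. Each replicate has its own calibration line, from reference interactions of the BCL2 family. The assay was run in three technical replicates.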

Each variant's VH is given in full.
Values are log10 of the apparent Kd in nM; lower means stronger binding.
An entry "ND" has no value in the source: the pair was not observed among the diploids in that replicate. This suggests poor binding but is not conclusive.
Three control strains display no target. For library AAYL51, 21% of the pairings with them gave a signal, with a median of 4.54 and one signal in twenty below 3.26, so weak values seen in few replicates may be background. For each scFv, signals with the empty controls are counted beside the result, with their mean in brackets.

{"VH": "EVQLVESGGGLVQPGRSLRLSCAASGFTFDDFAMHWVRQAPGKGLEWVSGISWNGGSIGYADSVKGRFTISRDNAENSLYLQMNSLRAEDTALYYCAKVGRGGGYFDYWGQGTLVTVSS", "log10 Kd (nM) by replicate": "ND ND ND", "signal with controls": "2 of 9 (4.60)"}
{"VH": "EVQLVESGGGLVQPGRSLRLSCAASGFLFDDYAMHWVRQAPGKGLEWVSGISWNDGSIGYADSVKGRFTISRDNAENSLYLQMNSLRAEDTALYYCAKVGRGGGQFDYWGQGTLVTVSS", "log10 Kd (nM) by replicate": "ND ND 4.34", "signal with controls": "2 of 9 (4.19)"}
{"VH": "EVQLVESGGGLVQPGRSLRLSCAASGFTFDDYAMHWVRQAPGKGLEWVSGISWNSGKIGYADSVKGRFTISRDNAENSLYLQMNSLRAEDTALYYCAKVGTGEGYFDYWGQGTLVTVSS", "log10 Kd (nM) by replicate": "4.94 5.66 ND", "signal with controls": "3 of 9 (3.90)"}
{"VH": "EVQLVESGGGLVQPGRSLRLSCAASGFTFDHYAMHWVRQAPGKGLEWVSGISWNSGSIGYDDSVKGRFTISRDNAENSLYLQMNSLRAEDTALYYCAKVGRGGGYFDYWGQGTLVTVSS", "log10 Kd (nM) by replicate": "ND ND ND", "signal with controls": "0 of 9"}
{"VH": "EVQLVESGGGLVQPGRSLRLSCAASLFTFDDYAMHWVRQAPGKGLEWVSGISWNSGRIGLADSVKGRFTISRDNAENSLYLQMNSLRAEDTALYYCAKVGRGGGYFDYWGQGTLVTVSS", "log10 Kd (nM) by replicate": "4.71 5.40 ND", "signal with controls": "4 of 9 (4.29)"}
{"VH": "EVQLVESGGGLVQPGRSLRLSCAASGTTFDDYAMHWVRQAPGKGLEWVSGISWNSGSIGYKDEVKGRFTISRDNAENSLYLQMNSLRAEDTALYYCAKVGRGGGYFDYWGQGTLVTVSS", "log10 Kd (nM) by replicate": "4.19 5.62 ND", "signal with controls": "3 of 9 (4.67)"}
{"VH": "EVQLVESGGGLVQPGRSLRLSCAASGFTFDDYAMHWVRQAPGKGLEWVSGISWNSGSYGYADSAKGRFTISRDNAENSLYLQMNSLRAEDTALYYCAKVGRWGGYFDYWGQGTLVTVSS", "log10 Kd (nM) by replicate": "ND ND 4.22", "signal with controls": "2 of 9 (4.48)"}
{"VH": "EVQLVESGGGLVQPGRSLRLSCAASGFTFDDYAMDWVRQAPGKGLEWVSGISWPSGSIGYADSVKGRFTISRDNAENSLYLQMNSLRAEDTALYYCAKVGRGGGYFDGWGQGTLVTVSS", "log10 Kd (nM) by replicate": "4.60 6.24 5.09", "signal with controls": "6 of 9 (5.21)"}
{"VH": "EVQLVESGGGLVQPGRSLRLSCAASGFTFDDYMMHWVRQAPGKGLEWVSGISWNSGSIGYALSVKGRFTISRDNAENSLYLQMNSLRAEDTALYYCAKVGRGLGYFDYWGQGTLVTVSS", "log10 Kd (nM) by replicate": "3.78 3.65 ND", "signal with controls": "3 of 9 (4.49)"}
{"VH": "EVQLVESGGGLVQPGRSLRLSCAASGFTFDDYAMHWVRQAPGKGLEWVSGISWKSGSIGYADTVKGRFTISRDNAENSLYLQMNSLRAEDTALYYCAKVGRGGGYFYYWGQGTLVTVSS", "log10 Kd (nM) by replicate": "4.37 5.39 ND", "signal with controls": "2 of 9 (5.36)"}
{"VH": "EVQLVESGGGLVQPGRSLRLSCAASQFTFDDYAMHWVRQAPGKGLEWVSGISHNSGSIGYADSVKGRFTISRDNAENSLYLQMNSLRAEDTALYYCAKVGRGGGYPDYWGQGTLVTVSS", "log10 Kd (nM) by replicate": "4.87 ND ND", "signal with controls": "3 of 9 (4.89)"}
{"VH": "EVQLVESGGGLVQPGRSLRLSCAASGFTFHDYQMWWVRQAPGKGLEWVSGISWNSGSIGYADSVKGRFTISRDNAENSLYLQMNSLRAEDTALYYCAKVGRGGGYFDYWGQGTLVTVSS", "log10 Kd (nM) by replicate": "ND ND ND", "signal with controls": "2 of 9 (4.56)"}
{"VH": "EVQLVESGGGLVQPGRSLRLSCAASRFTFDDYAMHWVRQAPGKGLEWVSGISWNSGSIGYADSVKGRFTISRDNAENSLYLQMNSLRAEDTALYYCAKVGRQYGYFDYWGQGTLVTVSS", "log10 Kd (nM) by replicate": "ND 4.00 ND", "signal with controls": "0 of 9"}
{"VH": "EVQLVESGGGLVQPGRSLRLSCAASGFTFDDYAMHWVRQAPGKGLEWVSGISWNSGSIGYADSVKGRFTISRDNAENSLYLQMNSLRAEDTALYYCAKMGFGGTYFDYWGQGTLVTVSS", "log10 Kd (nM) by replicate": "3.15 ND ND", "signal with controls": "3 of 9 (3.22)"}
{"VH": "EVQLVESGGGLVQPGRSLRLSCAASGFTFDDYAMHWVRQAPGKGLEWVSGISINSGQIGYADSVKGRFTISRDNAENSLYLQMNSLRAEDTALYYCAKVGRGGGYFDYWGQGTLVTVSS", "log10 Kd (nM) by replicate": "5.46 4.71 5.91", "signal with controls": "6 of 9 (5.26)"}
{"VH": "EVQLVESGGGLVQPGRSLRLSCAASGFTFDDNAMHWVRQAPGKGLEWVSGISWNSGSIGYADSVKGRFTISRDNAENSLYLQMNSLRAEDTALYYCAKVGRGGGYFDEWGQGTLVTVSS", "log10 Kd (nM) by replicate": "ND ND ND", "signal with controls": "0 of 9"}
{"VH": "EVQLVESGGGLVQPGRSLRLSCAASGFTFDDYAMYWVRQAPGKGLEWVSGISWNSGSIGYADQVKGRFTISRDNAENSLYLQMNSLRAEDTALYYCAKVGRGGGYFDNWGQGTLVTVSS", "log10 Kd (nM) by replicate": "0.65 0.63 0.07", "signal with controls": "9 of 9 (5.70)"}
{"VH": "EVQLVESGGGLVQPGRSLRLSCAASGFTFDDYAMIWVRQAPGKGLEWVSGISWNSMSIGYADSVKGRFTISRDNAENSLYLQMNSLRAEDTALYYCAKPGRGGGYFDYWGQGTLVTVSS", "log10 Kd (nM) by replicate": "5.51 4.27 5.09", "signal with controls": "6 of 9 (5.26)"}
{"VH": "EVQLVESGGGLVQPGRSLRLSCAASGFTFCDYAMQWVRQAPGKGLEWVSGISWNSGSIGYADTVKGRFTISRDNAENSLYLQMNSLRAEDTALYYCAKVGRGGGYFDYWGQGTLVTVSS", "log10 Kd (nM) by replicate": "6.28 5.26 ND", "signal with controls": "4 of 9 (4.43)"}
{"VH": "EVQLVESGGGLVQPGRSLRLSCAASGFTFDDYYMHWVRQAPGKGLEWVSGISWNSGSIRYADSVKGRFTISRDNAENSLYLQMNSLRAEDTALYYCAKVGRYGGYFDYWGQGTLVTVSS", "log10 Kd (nM) by replicate": "3.86 ND ND", "signal with controls": "2 of 9 (3.49)"}
{"VH": "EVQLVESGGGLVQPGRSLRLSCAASGFLFDDYAMHWVRQAPGKGLEWVSGISVNSGSIGYADSVKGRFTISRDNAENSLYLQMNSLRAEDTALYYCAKVGRIGGYFDYWGQGTLVTVSS", "log10 Kd (nM) by replicate": "ND ND ND", "signal with controls": "2 of 9 (2.93)"}
{"VH": "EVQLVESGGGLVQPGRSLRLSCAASGFTFDDYAMFWVRQAPGKGLEWVSGISWNSGSIGYADSVKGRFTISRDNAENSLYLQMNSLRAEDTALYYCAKVGRGGGYFTYWGQGTLVTVSS", "log10 Kd (nM) by replicate": "ND ND ND", "signal with controls": "2 of 9 (3.66)"}
{"VH": "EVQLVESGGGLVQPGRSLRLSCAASGFTFDDYWMHWVRQAPGKGLEWVSGISWNSGSIGYADNVKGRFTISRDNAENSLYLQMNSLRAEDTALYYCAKVGRGGGYFDYWGQGTLVTVSS", "log10 Kd (nM) by replicate": "ND ND ND", "signal with controls": "1 of 9 (4.21)"}
{"VH": "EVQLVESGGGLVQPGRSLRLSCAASGFTFDDYAMHWVRQAPGKGLEWVSGISWNSQTILYADSVKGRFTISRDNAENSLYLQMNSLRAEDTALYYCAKVGRGGGYFDYWGQGTLVTVSS", "log10 Kd (nM) by replicate": "ND ND ND", "signal with controls": "3 of 9 (3.71)"}
{"VH": "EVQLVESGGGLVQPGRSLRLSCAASGFTFDDYAMHWVRQAPGKGLEWVSGISWNSGNIGYADSVKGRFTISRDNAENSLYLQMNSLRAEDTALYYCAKVDRGGGYFDYWGQGTLVTVSS", "log10 Kd (nM) by replicate": "3.09 3.74 3.29", "signal with controls": "7 of 9 (4.97)"}

The first 3 variants above that were never detected:

VH	log10 Kd (nM) by replicate	signal with controls
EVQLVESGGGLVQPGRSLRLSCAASGFTFDDFAMHWVRQAPGKGLEWVSGISWNGGSIGYADSVKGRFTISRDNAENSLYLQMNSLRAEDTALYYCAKVGRGGGYFDYWGQGTLVTVSS	ND ND ND	2 of 9 (4.60)
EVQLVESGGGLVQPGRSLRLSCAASGFTFDHYAMHWVRQAPGKGLEWVSGISWNSGSIGYDDSVKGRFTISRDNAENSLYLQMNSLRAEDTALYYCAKVGRGGGYFDYWGQGTLVTVSS	ND ND ND	0 of 9
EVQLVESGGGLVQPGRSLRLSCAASGFTFHDYQMWWVRQAPGKGLEWVSGISWNSGSIGYADSVKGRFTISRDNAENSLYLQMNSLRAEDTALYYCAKVGRGGGYFDYWGQGTLVTVSS	ND ND ND	2 of 9 (4.56)